# OPERA 2.9 data: water solubility values

Values as listed in the OPERA 2.9 repository of K. Mansouri.

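The OPERA project collected these measurements from public sources as training and test data for property models. A listed value is a point estimate from one report or more. Method, purity and exact conditions of the single measurements are not given. The measured form (salt, isomer or mixture) is not always the one drawn. Some entries may be limits or estimates that an upstream database listed as plain numbers.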

Solubility in water is on a log10 molar scale (set defined at 25 °C).

{"smiles": "CCCCCCCCCCOC(=O)C(C)O", "stereo": "stereo not drawn", "name": "decyl lactate", "water solubility (log10 mol/L)": "-1.35"}
{"smiles": "CC(C)S", "name": "Isopropyl mercaptan", "water solubility (log10 mol/L)": "-1.603"}
{"smiles": "CCC(O)(CC)C(=O)O", "name": "2-Ethyl-2-hydroxybutyric acid", "water solubility (log10 mol/L)": "-0.706"}
{"smiles": "CC(=O)Nc1cccc([N+](=O)[O-])c1", "name": "Acetamide, N-(3-nitrophenyl)-", "water solubility (log10 mol/L)": "-2.17"}
{"smiles": "CC(=C(CCO)SSC(CCO)=C(C)N(C=O)Cc1cnc(C)nc1N)N(C=O)Cc1cnc(C)nc1N", "name": "Thiamine disulfide", "water solubility (log10 mol/L)": "-2.546"}
{"smiles": "c1ccc(COCc2ccccc2)cc1", "name": "Dibenzyl ether", "water solubility (log10 mol/L)": "-3.673"}
{"smiles": "O=C(Oc1ccccc1)c1ccccc1", "name": "Phenyl benzoate", "water solubility (log10 mol/L)": "-3.719"}
{"smiles": "CCCCCCN1CCCC1=O", "name": "2-Pyrrolidinone, 1-hexyl-", "water solubility (log10 mol/L)": "-1.101"}
{"smiles": "O=c1[nH]cnc2ccccc12", "water solubility (log10 mol/L)": "-0.924"}
{"smiles": "CN(C)c1nc(N(C)C)nc(N(C)O)n1", "water solubility (log10 mol/L)": "-2.37"}
{"smiles": "Cc1no[n+]([O-])c1C", "name": "Dimethylfurazan monoxide", "water solubility (log10 mol/L)": "-0.535"}
{"smiles": "CC(=O)C(N=Nc1ccc(-c2ccc(N=NC(C(C)=O)C(=O)Nc3ccc(C)cc3)c(Cl)c2)cc1Cl)C(=O)Nc1ccc(C)cc1", "stereo": "stereo not drawn", "name": "C.I. Pigment Yellow 55", "water solubility (log10 mol/L)": "-8.102"}
{"smiles": "Nc1ccc([N+](=O)[O-])cc1C(=O)O", "name": "Benzoic acid, 2-amino-5-nitro-", "water solubility (log10 mol/L)": "-2.26"}
{"smiles": "NS(=O)(=O)c1cc2c(cc1Cl)NC(C1CC3C=CC1C3)NS2(=O)=O", "stereo": "stereo not drawn", "name": "Cyclothiazide", "water solubility (log10 mol/L)": "-3.145"}
{"smiles": "CC(=O)CC(=O)C(=O)O", "name": "Acetylpyruvic acid", "water solubility (log10 mol/L)": "0.291"}
{"smiles": "N[C@@H](CCS)C(=O)O", "name": "Homocysteine", "water solubility (log10 mol/L)": "0.039"}
{"smiles": "CS(=O)(=O)OCCCCOS(C)(=O)=O", "name": "Busulfan", "water solubility (log10 mol/L)": "-2.267"}
{"smiles": "CCCCCCCCCCCC(=O)OCC[N+](C)(C)C.[Cl-]", "name": "2-(Dodecanoyloxy)-N,N,N-trimethylethan-1-aminium chloride", "water solubility (log10 mol/L)": "-2.211"}
{"smiles": "CCCCC1NC(=O)NC1=O", "stereo": "stereo not drawn", "name": "5-Butylimidazolidine-2,4-dione", "water solubility (log10 mol/L)": "-1.495"}
{"smiles": "O=C(C=Cc1ccccc1)OCCc1ccccc1", "name": "Phenethyl cinnamate", "water solubility (log10 mol/L)": "-5.683"}
{"smiles": "NS(=O)(=O)c1cc2c(s1)S(=O)(=O)CC(O)C2", "stereo": "stereo not drawn", "water solubility (log10 mol/L)": "-1.539"}
{"smiles": "C[C@@H]1CN(c2c(F)c(N)c3c(=O)c(C(=O)O)cn(C4CC4)c3c2F)C[C@H](C)N1", "name": "Sparfloxacin", "water solubility (log10 mol/L)": "-3.541"}
{"smiles": "COc1cccc(O)c1", "name": "3-Methoxyphenol", "water solubility (log10 mol/L)": "-2.39"}
{"smiles": "Cc1cnc2c(=O)nc[nH]c2n1", "name": "4(3H)-Pteridinone, 7-methyl-", "water solubility (log10 mol/L)": "-1.561"}
{"smiles": "O=C(O)CN(C(=S)SCc1ccccc1)c1ccccc1", "name": "S-Benzyl-N-(dithiocarboxy)-N-phenylglycine", "water solubility (log10 mol/L)": "-3.922"}
{"smiles": "N[C@@H](CSCCCCCCSC[C@H](N)C(=O)O)C(=O)O", "water solubility (log10 mol/L)": "-2.771"}
{"smiles": "CC1=CCC(C)C(C)C1=O", "stereo": "stereo not drawn", "name": "2-Cyclohexen-1-one, 2,5,6-trimethyl-", "water solubility (log10 mol/L)": "-1.885"}
{"smiles": "O=C(c1ccc(O)cc1)c1ccc(O)cc1", "name": "4,4'-Dihydoxybenzophenone", "water solubility (log10 mol/L)": "-2.812"}
{"smiles": "CC(C)c1nc(C(=O)O)c(C(=O)O)[nH]1", "name": "2-Isopropyl-1H-imidazole-4,5-dicarboxylic acid", "water solubility (log10 mol/L)": "-1.792"}
{"smiles": "Nc1[nH]c(=O)nc2[nH]c(=O)[nH]c12", "name": "2,8-Dihydroxyadenine", "water solubility (log10 mol/L)": "-4.922"}
{"smiles": "CCCC/C=C\\CCCCCCOC(C)=O", "name": "cis-7-Dodecenyl acetate", "water solubility (log10 mol/L)": "-5.6"}
{"smiles": "CCCCCCCCCCCCCCCCCC(=O)OCCCC", "name": "Octadecanoic acid, butyl ester", "water solubility (log10 mol/L)": "-2.3"}
{"smiles": "CC1(C)[C@@H]2CC[C@@]1(C)[C@H](O)[C@H]2N", "name": "(1R)-3-endo-Amino-2-exo-bornanol", "water solubility (log10 mol/L)": "-1.229"}

The 3 lowest values of water solubility among the entries above:

compound	name	water solubility (log10 mol/L)
CC(=O)C(N=Nc1ccc(-c2ccc(N=NC(C(C)=O)C(=O)Nc3ccc(C)cc3)c(Cl)c2)cc1Cl)C(=O)Nc1ccc(C)cc1 (stereo not drawn)	C.I. Pigment Yellow 55	-8.102
O=C(C=Cc1ccccc1)OCCc1ccccc1	Phenethyl cinnamate	-5.683
CCCC/C=C\CCCCCCOC(C)=O	cis-7-Dodecenyl acetate	-5.6